Like-named read-outs stand apart in the source and are kept apart here.
Tests used:
[1] = SD rat, oral nalbuphine 100 mg/Kg, with or without capillarisin 4 mg/Kg, Mean ± SE, n = 6
[2] = SD rat, intravenous nalbuphine, with or without capillarisin, Mean ± SE, n = 6

Compound `Oc1ccc2c3c1O[C@H]1[C@@H](O)CC[C@@]4(O)[C@@H](C2)N(CC2CCC2)CC[C@]314` [Nalbuphine, nalbuphine] has a V/F [1] of 2919.123 ± 863.25 L/kg and a V/F [2] of 42.194 ± 6.492 L/kg.
